The results in this text go back to paper PMC13162264, “Chemoproteomic Elucidation of β‑Lactam Drug Targets in Mycobacterium abscessus” (ACS Infectious Diseases, 2026).

The subject of assay [1] is nine recombinant Mab enzymes (PbpB, DacB2, Ldt4, LpqF, MAB_0330, MAB_2833, MAB_4299c, MAB_4800, MAB_3998). The experiment in a line: β-lactam competition of ABP labeling, recombinant enzymes. The class given is binding, Mycobacterium abscessus. The conditions noted are these: drug 500 μM, 30 min 37 °C, then 10 μM Mero-sCy5 or Bocillin FL.
The subject of the next assay is MAB_4299c. The experiment in a line: β-lactam competition of ABP labeling, recombinant enzyme. The conditions noted are these: drug 500 μM, 30 min 37 °C, then 10 μM Mero-sCy5 or Bocillin FL. It counts as binding, Mycobacterium abscessus.
Assay [2] relates to nine recombinant Mab enzymes (PbpB, DacB2, Ldt4, LpqF, MAB_0330, MAB_2833, MAB_4299c, MAB_4800, MAB_3998). The experiment in a line: β-lactamase activity, endpoint nitrocefin hydrolysis. It counts as biochemical, Mycobacterium abscessus. The following applies: 8 μM protein, 200 μM nitrocefin, 2 h, 37 °C; p < 0.05 vs buffer.

In the case of `C[C@@H](O)[C@H]1C(=O)N2C(C(=O)O)=C(SCCN=CN)C[C@H]12` [IPM, imipenem], the “inhibition of fluorescent ABP binding, all nine proteins” value in assay [1] is given as “inhibited”.
Take `CO[C@@]1(NC(=O)Cc2cccs2)C(=O)N2C(C(=O)O)=C(COC(N)=O)CS[C@@H]21` [FOX, cefoxitin]: the “inhibition of fluorescent ABP binding to MAB_4299c” value in the assay on MAB_4299c is on record as “did not inhibit”.
As to `NC(=O)[C@@H]1CC[C@@H]2CN1C(=O)N2OS(=O)(=O)O` [AVI, avibactam], in assay [1], the “inhibition of fluorescent ABP binding, all nine proteins” value is “mostly had no effect”.
In the case of `O=C(Cc1cccs1)N[C@@H]1C(=O)N2C(C(=O)O)=C(/C=C/c3ccc([N+](=O)[O-])cc3[N+](=O)[O-])CS[C@H]12` [nitrocefin], the “nitrocefin hydrolysis, endpoint” value in assay [2] is on record as “nitrocefin hydrolysis above buffer-only control”.
